Measurements published in US20240082416A1, “AMATOXIN ANALOGS AND USES THEREOF” (THE UNIVERSITY OF BRITISH COLUMBIA, priority 2020, published 2024).

How the values were obtained:
CHO cells = assay: Viability assay against CHO cells (MTT colorimetric assay); assay type: cell-based, Chinese hamster; conditions: 72 h, replicates n = 1, 2, 3
Method: (f) Cell culture: Cells were cultured in Minimum Essential Medium Eagle—Alpha Modification (α-MEM) or […] Dulbecco's Modified Eagle Medium (DMEM), purchased from Gibco. Fetal bovine serum (FBS), 0.25% trypsin (with 1.3 mM ethylenediaminetetraacetic acid, EDTA), 0.85% Trypan blue, and the antibiotic mixture Pen/Strep (10K U/mL penicillin, 10K mg/mL streptomycin) were also purchased from Gibco. All cell culture plastic ware was obtained from Coming or Falcon. Cells were cultured at 37° C. in a humidified chamber with 5% CO2. When used in cell culture, DMSO was purified by filtration through a […] filter. All experiments were carried out in a laminar flow culture cabinet, unless otherwise noted. Absorbance measurements of the 96-well plates were obtained using a Beckman-Coulter DTX 880 multimode detector, equipped with an excitation filter of 595 nm.
Immortalized CHO cells had been stored in liquid nitrogen. To revive cells, a 1-mL tube of the frozen cells in medium containing 10% DMSO was warmed in a 30° C. water bath and diluted with 9 mL of fresh media. Media contained 10% FBS and 100 U/mL penicillin and […] streptomycin, unless otherwise indicated. The cells were incubated in a T-25 flask at 37° C. at 5% CO2. After 24 hours, the medium was aspirated and replaced with fresh medium. When cells reached a level of 90-100% confluence, they were sub-cultured. The medium was removed, and the cells were treated with 0.25% trypsin containing 1.3 mM EDTA in the incubator. Once the cells were detached from the tissue culture flask, 3-5 mL media was added to quench the trypsin and the mixture was transferred to a 10 mL centrifuge tube. The mixture was centrifuged for 5 min at […], and the supernatant was discarded. The cells were suspended in fresh medium, diluted as required, and transferred to a new culture flask.
To assay cell viability, a nearly confluent tissue culture flask was trypsinized, and the cells were counted following treatment with Trypan blue, using a hemocytometer. The cells were then diluted to the appropriate stock concentrations in fresh medium and transferred in 100 μL to a 96-well plate using a multi-channel pipette. The number of cells plated varied from experiment to experiment. These were incubated at 37° C. and 5% CO2 for a 24-hour period to allow for adherence. The medium was aspirated, and fresh medium was added, which contained the desired additives in DMSO. The cells were then re-incubated for 72 h. At the completion of the experiment, a 100 μL aliquot of 25 mg/mL MTT in phosphate-buffered saline (PBS) was added to each well. The plate was incubated three hours further to allow for the formation of the formazan product in viable cells. The media was carefully aspirated, and the purple product was solubilized in DMSO. The absorbance of each well was recorded at 595 nm. Data was processed in Microsoft Excel and GraphPad Prism. Experiments were performed in triplicates unless otherwise noted, and the error bars were calculated as the standard error of the mean.
Trypsinized cells were diluted to a concentration of 3.3×10^4 cells/mL for CHO cells. Each cell line was plated in a 96-well plate, with 100 μL of the stock solution per well (5000 cells per well) and incubated for 24 hours. Stocks of α-amanitin or analogs were prepared at various concentrations, containing a maximum of 0.8% DMSO, and added to various wells, according to the desired final concentration. The cells were incubated for 72 hours, at which point viability was assessed as described.

HEK293-OATP1B3 cells = assay: Cell viability assay (BrdU incorporation) on HEK293-OATP1B3 cells; assay type: cell-based, human
Method: . HEK293 and HEK-OATP1B3 cells were plated at 2.5×10^3 cells/well in a 1:1 mixture of Ham's F12 with DMEM containing 10% charcoal-stripped fetal calf serum (FCS) onto poly-D-lysine-coated 96-well plates and grown for 24 hours. Subsequently, cells were incubated with amanitin analogs at 8 different concentrations (1×10^−6 M to 1.28×10^−11 M, serial 1:5 dilutions). Following 96 h of drug exposure, cell viability was determined by a BrdU incorporation assay (Cell Proliferation ELISA, BrdU, Roche) and chemiluminescence was measured using a FLUOstar Optima plate reader (BMG LABtech). Data analysis was performed with GraphPad Prism 8 (GraphPad Software, Inc., La Jolla, CA) software to plot curve fits.

[1] = molecular target: eukaryotic RNA polymerase II (Pol II) (Homo sapiens, UniProt P24928); conditions: literature; cited from earlier work
[2] = in vivo; cited from earlier work

α-amanitin [Compound 1, reference compound]
% viable cells (CHO cells; 2e-005 M): 1% | % viable cells (CHO cells; 2.22e-006 M, listed as α-amanitin (1)): 16% and 13% and 14% | % viable cells (CHO cells; 2.5e-007 M, listed as α-amanitin (1)): 76% and 82% and 81% | % viable cells (CHO cells; 2.7e-008 M, listed as α-amanitin (1)): 84% and 90% and 109% | % viable cells (CHO cells; 6.67e-006 M, listed as α-amanitin (1)): 2% (2×) and 1% | % viable cells (CHO cells; 7.4e-007 M, listed as α-amanitin (1)): 59% and 65% and 81% | % viable cells (CHO cells; 8.2e-008 M, listed as α-amanitin (1)): 76% and 73% and 97% | % viable cells (CHO cells; 9e-009 M, listed as α-amanitin (1)): 89% and 91% and 117% | IC50 (HEK293-OATP1B3 cells; 96 h): 43.1 ± 7.4 nM | cell viability (HEK293-OATP1B3 cells; highest used concentration of 1 μM): 0% | Ki [1]: 1 to 10 nM | ID50 [2]: 0.05 to 0.1 mg/kg

Several values for one entry are separate records, joined by “and”; a condition that tells them apart may be missing. Equal entries are not always repeated.
